Measurements as given in patent US20130011347A1, “Personal Care Compositions With Improved Solubility of a Solid Cosmetic Active” (priority 2011, published 2013).

Key:
[1] = Solvency of solvents for (S)-Equol (visual solubility after storage)
Experimental: (§1) In the testing provided below, “soluble” (or “solubilize”), in relation to the solubility of a solid solute being tested, means that no visible crystals may be seen after a prescribed storage period at a storage condition. The storage period can vary. Suitable storage periods include about 24 hours, about 1 week, and about 30 days. Suitable storage conditions include ambient conditions or cold storage at 5° C. (approximately 1 atm). In certain embodiments, solubility may be determined after a 24 hour storage period at ambient conditions. In other embodiments, solubility may be determined after 20 days in cold storage. Other testing parameters may include storage for prolonged time periods (e.g., 30 day, 50 days, 60 days, 90 days) and at variable temperatures (e.g., 5° C., 50° C.).
(§2) The solvency of an isosorbide diester within the scope of the present invention was tested against two conventional, industry standard solvents. […] A test solution was of 6% Equol is prepared with heating to 70° C. Upon reaching 70° C., the examples may be mixed for about 10 minutes. Place mixtures in a covered vial and cool to the storage temperature. Solubility is evaluated for samples stored 24 hours at ambient conditions. Solubility is also evaluated for samples stored for 7 day at 5° C. followed by equilibration to ambient conditions.

[2] = Solvency of solvents for hexylresorcinol (visual solubility after storage)
Experimental: as §1
as §2, with “solution” for “solution was”, “33.5% hexylresorcinol” for “6% Equol”

[3] = Solvency of solvents for tetrahydrocurcuminoids (THC) (visual solubility after storage); details: solute tetrahydrocurcuminoids (THC), 3% test solution, approximately 1:32 solute to solvent ratio, soluble = no visible crystals

Solubility, 24 hour rest at Ambient Conditions [1]	Solubility, 7 day storage at 5° C. [1]	Solubility, 24 hour rest at Ambient Conditions [2]	Solubility, 7 day storage at 5° C. [2]	Substance	Solubility, 24 hour rest at Ambient Conditions ([1]; solute (S)-Equol, 6% test solution, approximately 1:16 solute to solvent ratio, prepared at 70° C., soluble = no visible crystals)	Solubility, 7 day storage at 5° C. ([1]; solute (S)-Equol, 6% test solution, approximately 1:16 solute to solvent ratio, then equilibration to ambient conditions, soluble = no visible crystals)	Solubility, 24 hour rest at Ambient Conditions ([3]; prepared at 70° C.)	Solubility, 7 day storage at 5° C. ([3]; then equilibration to ambient conditions)	Solubility, 24 hour rest at Ambient Conditions ([2]; solute hexylresorcinol, 33.5% test solution, approximately 1:2 solute to solvent ratio, prepared at 70° C., soluble = no visible crystals)	Solubility, 7 day storage at 5° C. ([2]; solute hexylresorcinol, 33.5% test solution, approximately 1:2 solute to solvent ratio, then equilibration to ambient conditions, soluble = no visible crystals)
Insoluble	Insoluble	Soluble	Soluble	C12-15 alkyl benzoate	–	–	–	–	–	–
–	–	–	–	isosorbide dicaprylate	Soluble	Soluble	Soluble	Soluble	Soluble	Soluble
